Earlier results on one compound are cited in PMC6478789, “A chemical toolbox for the study of bromodomains and epigenetic signaling” (Nature Communications, 2019).

Protein sequences, listed by entry. Tags and fused reporters are not part of them. Residues count along the entry.
UniProt O15164, 899-1004 limits assumed: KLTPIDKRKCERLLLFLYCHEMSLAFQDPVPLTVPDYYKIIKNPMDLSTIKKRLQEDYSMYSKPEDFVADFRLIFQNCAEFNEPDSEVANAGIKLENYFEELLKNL

One data set deals with BRPF2. The following applies: read-out: KD (nM), BRPF2; ITC; ref 19 (suppl.); cited from earlier work.
The target of the next data set is TRIM24 (Homo sapiens, UniProt O15164). The following applies: read-out: KD (nM), TRIM24; ITC; ref 19 (suppl.); cited from earlier work.

Take `COc1ccc(Oc2cc3c(cc2NS(=O)(=O)c2ccc(OC)c(OC)c2)n(C)c(=O)n3C)cc1`: the dissociation constant Kd at BRPF2 is 1240 nM; at TRIM24, 220 nM.
